Measurements reported in ChEMBL document CHEMBL5500370, “Discovery of potent and novel dual NAMPT/BRD4 inhibitors for efficient treatment of hepatocellular carcinoma” (Eur J Med Chem, 2024).
The source made the active and inactive calls.

Key:
Type in all cases: functional, cell-based
Hep 3B2 [1] = experiment: Downregulation of NAD+ level in human Hep3B cells at 10 uM measured after 72 hrs in presence of FK866
Hep 3B2 [2] = experiment: Induction of apoptosis in human Hep3B cells at 10 uM measured after 48 hrs in presence of FK866 by Annexin V-FITC/Pi staining based flow cytometry
Hep 3B2 [3] = experiment: Downregulation of NAMPT level in human Hep3B cells at 10 uM measured after 48 hrs by Western blot analysis
Hep 3B2 [4] = experiment: Downregulation of c-Myc level in human Hep3B cells at 10 uM measured after 48 hrs in presence of FK866 by Western blot analysis
Hep 3B2 [5] = experiment: Downregulation of NAMPT level in human Hep3B cells at 10 uM measured after 48 hrs in presence of FK866 by Western blot analysis
Hep 3B2 [6] = experiment: Downregulation of NAPRT level in human Hep3B cells at 10 uM measured after 48 hrs by Western blot analysis
Hep 3B2 [7] = experiment: Downregulation of YAP-1 level in human Hep3B cells at 10 uM measured after 48 hrs in presence of FK866 by Western blot analysis
Hep 3B2 [8] = experiment: Downregulation of NAPRT level in human Hep3B cells at 10 uM measured after 48 hrs in presence of FK866 by Western blot analysis
Hep 3B2 [9] = experiment: Downregulation of NAMPT level in human Hep3B cells at 10 uM measured after 48 hrs in presence of JQ1 by Western blot analysis
Hep 3B2 [10] = experiment: Downregulation of YAP-1 level in human Hep3B cells at 10 uM measured after 48 hrs in presence of JQ1 by Western blot analysis
Hep 3B2 [11] = experiment: Downregulation of NAD+ level in human Hep3B cells at 10 uM measured after 72 hrs in presence of JQ1
Hep 3B2 [12] = experiment: Induction of apoptosis in human Hep3B cells at 10 uM measured after 48 hrs in presence of JQ1 by Annexin V-FITC/Pi staining based flow cytometry
Hep 3B2 [13] = experiment: Downregulation of c-Myc level in human Hep3B cells at 10 uM measured after 48 hrs in presence of JQ1 by Western blot analysis
Hep 3B2 [14] = experiment: Downregulation of NAPRT level in human Hep3B cells at 10 uM measured after 48 hrs in presence of JQ1 by Western blot analysis

Measured: Activity

Cc1sc2c(c1C)C(c1ccc(Cl)cc1)=N[C@@H](CC(=O)OC(C)(C)C)c1nnc(C)n1-2
active: Hep 3B2 [1] | Hep 3B2 [2] | Hep 3B2 [3] | Hep 3B2 [4] | Hep 3B2 [5] | Hep 3B2 [6] | Hep 3B2 [7] | Hep 3B2 [8]

O=C(/C=C/c1cccnc1)NCCCCC1CCN(C(=O)c2ccccc2)CC1 [DAPORINAD]
active: Hep 3B2 [9] | Hep 3B2 [10] | Hep 3B2 [3] | Hep 3B2 [11] | Hep 3B2 [12] | Hep 3B2 [6] | Hep 3B2 [13] | Hep 3B2 [14]
